Source: US11319341B2, “Immune-stimulating soluble doxorubicin-conjugated complex” (Yafei (Shanghai) Biopharmaceutical Co., Ltd., priority 2016, dated 2022)

Key:
CT26 tumor cells = test: CT26 tumor immune model: inhibition of tumor; assay type: in vivo; conditions: CT26 subcutaneous tumor, BALB/c mice, compounds 18 μmol/kg, mouse PD-1 antibody 5 mg/kg
Method: Test purpose: to investigate the anti-tumor efficacy of different compounds in CT26 cancer model for immune treatment.
(§1) Test drug: QHL-096, QHL-087, QHL-090, QHL-093, QHL-117 and controls, all used in 18 μmol/kg; mouse PD-1 antibody, 5 mg/kg.
1) CT26 tumor cells were purposed from ATCC.
(§2) Mice were randomly grouped after the tumor reached at least 100 mm^3 Then treatment began and the day on which the treatment began was day 1.

tumor CD8+ T cells = test: CT26 tumor immune model: tumor CD8+ T cells (CD8 positive in CD45 positive cells, flow cytometry); assay type: in vivo, BALB/c mice; conditions: ratio of CD8 positive cells in CD45 positive cells in tumor, compounds 18 μmol/kg, PD-1 antibody 5 mg/kg
Method: as §1, §2
3) Analysis on tumor CD8+ T cells. The tumor tissue was homogenated and individual cells in the tumor were filtered, separated and washed by buffer twice, then cultivated with the leucocyte common antigen CD45-PE and CD8-FITC marked antibodies for 1 hour at ambient temperature. The cells were washed by phosphate buffer containing 1% fetal bovine serum twice and then analyzed for the ratio of the T lymphocyte antigen (CD8) positive cells in the leucocyte common antigen (CD45) positive cells by flow cytometry. Increasement of the ratio indicates increased T lymphocyte cells and thus the animal immunity against the tumor was improved.

PD-1
inhibitory rate on tumor % Day 18 (CT26 tumor cells; Day 18 as printed): 16.6% | Size of tumor (mm^3) Day 28 (CT26 tumor cells; Day 28): 1574.6 ± 474.5 mm^3 | CD8:CD45 (%) (tumor CD8+ T cells): 6.1%
